Values quoted from earlier work as cited in patent publication US6159733A, “Method for photoinactivating malignant cells” (priority 1996, dated 2000).

Tested on: cells
Details: cited from earlier work

Substance: hematoporphyrin derivative [HPD]
- cell size and photosensitizer uptake: correlation between cell size and photosensitizer uptake
